# Binding of CDR-mutated scFvs to a peptide of the spike HR2 region

Values reported by Engelhart et al. 2022, doi:10.1038/s41597-022-01779-4 (FLAb copy).

Binding partner: SARS-CoV-2 spike HR2 peptide, sequence PDVDLGDISGINAS.

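The starting antibody came from a phage panning campaign against this peptide. The library (AAYL49) carries one to three amino acid substitutions per variant, with no insertions or deletions. AlphaSeq pools MATa yeast showing the antibodies with MATalpha yeast showing the peptide. The frequency of each diploid, read from paired DNA barcodes, reflects how well the two displayed proteins bind. A regression on co-assayed BCL2-family reference pairs converts the normalised counts of each replicate to an apparent Kd. Each pool was mated in three replicate cultures.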

Parent: Ab-14, a human scFv built as VH, a 15-residue (Gly4Ser)3 linker, VL. Only the CDRs of the heavy chain vary.
VH: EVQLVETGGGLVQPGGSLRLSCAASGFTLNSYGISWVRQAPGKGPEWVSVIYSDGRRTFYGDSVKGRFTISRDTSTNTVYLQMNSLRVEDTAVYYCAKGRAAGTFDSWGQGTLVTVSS
VL: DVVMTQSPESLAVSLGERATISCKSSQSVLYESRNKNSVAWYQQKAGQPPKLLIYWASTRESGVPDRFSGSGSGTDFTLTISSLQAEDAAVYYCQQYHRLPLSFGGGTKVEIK

Each variant is given by its three heavy chain CDRs, as the data file delimits them; those of the parent are GFTLNSYGIS, VIYSDGRRTFYGDSVK, GRAAGTFDS.
This list gathers variants with a substitution at I34 (VH, numbered from residue 1).
Values are apparent Kd, the geometric mean of the replicates that gave a signal; lower means stronger binding.
An entry "nd" has no value in the source: the pair was not observed among the diploids in any replicate. This suggests poor binding but is not conclusive.
Empty control strains, which show no peptide, gave a signal in 15% of pairings with library AAYL49; the median was 11 µM and 95% of these signals were weaker than 680 nM. No background was subtracted. For each scFv, signals with the empty controls are counted beside the result.

* GFTLRSYHSS / VIYSDGRRTFYGDSVK / GRAAGTFDS: nd (0 of 3 replicates; controls 1 of 9)
* GFTLNSYGWS / VIYSDGRHTFYGDSVK / GRAAGTFCS: nd (0 of 3 replicates; controls 0 of 9)
* GFTLNSYGGS / VIYSDGRDTFYGDSVK / GRAAGTFDK: nd (0 of 3 replicates; controls 1 of 9)
* LFTLNSYGGS / VIYSDGQRTFYGDSVK / GRAAGTFDS: 5.9 µM (1 of 3 replicates; controls 2 of 9)
* GFTLNSYGLS / VTYSDGRRMFYGDSVK / GRAAGTFDS: nd (0 of 3 replicates; controls 0 of 9)
* GFTLNSYGGS / VIYSDGRRTFRGDSVK / GTAAGTFDS: nd (0 of 3 replicates; controls 0 of 9)
* GFTLNSYGWS / RIYSDGRRTFYGDSVK / IRAAGTFDS: 25 µM (1 of 3 replicates; controls 2 of 9)
* GFTLNSYGSS / VIYSDGRRLFYGDSVK / GRAAGTFQS: 49 nM (3 of 3 replicates; controls 3 of 9)
* GFTLNSYGKS / VISSDGRRTFYGDSVK / GRAACTFDS: 6.7 µM (2 of 3 replicates; controls 3 of 9)
* GFTVTSYGES / VIYSDGRRTFYGDSVK / GRAAGTFDS: 18 µM (1 of 3 replicates; controls 2 of 9)
* GFTLNSYGTS / VIYSDGRRTFYGDSVK / GRAAGTQDS: nd (0 of 3 replicates; controls 0 of 9)
* EFTLNSYGMS / VIYFDGRRTFYGDSVK / GRAAGTFDS: nd (0 of 3 replicates; controls 0 of 9)
* GFTLNSYGGS / VIYSDGRRTFYGDSVK / GRAWGTFYS: nd (0 of 3 replicates; controls 1 of 9)
* GFTLNSYGYS / GIYSDGRRTFYGDSVK / GRAAGTFQS: nd (0 of 3 replicates; controls 1 of 9)
* GFTLNSYGRS / VIYSIGRRTFYGDSVK / GRAARTFDS: 3.2 µM (2 of 3 replicates; controls 2 of 9)
* GFTLNSYGQS / VIYSDGRRTFYGDSVK / GRAAGTFDS: 15 µM (2 of 3 replicates; controls 1 of 9)
* GFYLNSYGDS / VIYSDGRRTFYGDSVK / GRAAGTFDS: 92 µM (1 of 3 replicates; controls 3 of 9)
* GFRLNSYGES / VIYSDGRRTFYGDSVK / RRAAGTFDS: nd (0 of 3 replicates; controls 0 of 9)
* GFTLNSYGQS / VIYSDGRRTFYFDPVK / GRAAGTFDS: nd (0 of 3 replicates; controls 1 of 9)
* GFTLNSFGTS / VIYSDGRRTFYGDSVK / GRAVGTFDS: 48 µM (1 of 3 replicates; controls 0 of 9)
* GFTLNSYGQS / VIYSDGARTVYGDSVK / GRAAGTFDS: nd (0 of 3 replicates; controls 1 of 9)
* GLTLNSYGRS / TIYSDGRRTFYGDSVK / GRAAGTFDS: nd (0 of 3 replicates; controls 0 of 9)
* GFTLASYGAS / VIGSDGRRTFYGDSVK / GRAAGTFDS: 12 µM (2 of 3 replicates; controls 2 of 9)
* GFTLNSYGVS / VIYSDGRRTIYGDSVH / GRAAGTFDS: 28 µM (1 of 3 replicates; controls 1 of 9)
* GFTLNSYGLS / VIYSDGRRTFYCDSVK / GRAAGTCDS: 40 µM (1 of 3 replicates; controls 0 of 9)
* GFTLNSYGMS / VIYSDGRRTEYGDSVK / GRAAGFFDS: 3.0 µM (3 of 3 replicates; controls 6 of 9)
* GFTLNSYGLS / VIYSDGRRTFYGSSVK / GRAVGTFDS: nd (0 of 3 replicates; controls 2 of 9)
* GFILNSYGMS / VIYSDGRRTFYGDSVK / GFAAGTFDS: nd (0 of 3 replicates; controls 1 of 9)
* GFTLNSYGMS / VIYSDGRRTFYGDSHK / GVAAGTFDS: nd (0 of 3 replicates; controls 0 of 9)
* GFTLNSYGGS / VIYSDKRRTFYGDSVK / VRAAGTFDS: nd (0 of 3 replicates; controls 1 of 9)
* GFTLNSYGPS / VIYSDGRHTFYGDSVK / GRAAGTFDS: nd (0 of 3 replicates; controls 0 of 9)
* GFTLNSYGMS / VIYSDGRRTFYGDSVK / GRAGGTFDF: nd (0 of 3 replicates; controls 0 of 9)
* GFTLNSYGAS / VIYSDGRRTFYGDQVK / GMAAGTFDS: nd (0 of 3 replicates; controls 2 of 9)
* GFTLNPYGES / VIYSDGRRTFYGDSVK / DRAAGTFDS: 88 µM (2 of 3 replicates; controls 3 of 9)
* GFTLNSYGRS / VIYSDGRRTFYGDSRK / GRAAGTFDS: nd (0 of 3 replicates; controls 0 of 9)
* GFTLNSYGNS / VIYSDGRRNFYGDSVE / GRAAGTFDS: 430 nM (1 of 3 replicates; controls 1 of 9)
* GFTLMSYGRS / VIYSDFRRTFYGDSVK / GRAAGTFDS: nd (0 of 3 replicates; controls 0 of 9)
* MFTLNSYGNS / VIYSDGRRVFYGDSVK / GRAAGTFDS: 50 µM (1 of 3 replicates; controls 0 of 9)
* GFTLNSYGVS / VIYSDGRRTFIGDSPK / GRAAGTFDS: 790 nM (1 of 3 replicates; controls 2 of 9)
* VFTLNSYGLS / VIYSDGRRTFYGDSVK / GRCAGTFDS: 15 µM (2 of 3 replicates; controls 2 of 9)
* GFTLNSYGKS / HIYSDGRRTFYVDSVK / GRAAGTFDS: nd (0 of 3 replicates; controls 6 of 9)
* GTTLNSYGAS / VIYSDGRRTFYGDSVK / ERAAGTFDS: 2.7 µM (1 of 3 replicates; controls 3 of 9)
* GFTLNSWGAS / VIYSDGRRTFYGDSVK / GRAAGTFDS: nd (0 of 3 replicates; controls 0 of 9)
* SFTLNSMGLS / VIYSDGRRTFYGDSVK / GRAAGTFDS: nd (0 of 3 replicates; controls 0 of 9)